Assay results: US7335757B2, “Carbonyl reductase, gene encoding the same, and process for producing optically active alcohols using the same” (Mitsubishi Chemical Corporation, priority 2002, dated 2008)

Test system: carbonyl reductase
Assay: Reduction activity of the enzyme on various ketones and aldehyde (initial rate of NADPH decrease)
Format: biochemical, Ogataea minuta var. nonfermentans IFO 1473
Settings: relative to 2,2,2-trifluoroacetophenone defined as 100, 0.1 M phosphate buffer pH 7.0

Compound	Specific activity (%)
3-Chloro-2,4-pentadione	32.7%
2,3-Pentadione	21.5%
CC(C)(C)C(=O)CBr	55.4%
